Structures are written as SMILES.

Assay [1] deals with T1, peripheral α2-adrenoceptors (Rattus norvegicus, UniProt P22909).
T1 construct: isolated, field-stimulated rat vas deferens is utilized as an in vitro model; from tissue; host or cells: rat vas deferens (isolated, field-stimulated)
T1 sequence (P22909 1-465): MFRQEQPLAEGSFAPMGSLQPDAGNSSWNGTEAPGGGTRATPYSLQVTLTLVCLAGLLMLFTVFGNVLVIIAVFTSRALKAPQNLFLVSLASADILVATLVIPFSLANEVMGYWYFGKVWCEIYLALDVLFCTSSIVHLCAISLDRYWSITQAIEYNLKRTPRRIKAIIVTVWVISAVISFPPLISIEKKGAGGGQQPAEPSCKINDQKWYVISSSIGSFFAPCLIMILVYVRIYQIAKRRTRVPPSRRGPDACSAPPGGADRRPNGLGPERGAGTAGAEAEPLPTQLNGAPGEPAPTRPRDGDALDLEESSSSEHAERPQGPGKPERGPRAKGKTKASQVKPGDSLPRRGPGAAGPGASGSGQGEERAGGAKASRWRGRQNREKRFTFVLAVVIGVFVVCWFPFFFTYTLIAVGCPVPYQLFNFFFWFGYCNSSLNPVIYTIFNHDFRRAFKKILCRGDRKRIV
Kind of assay: In vitro field-stimulated rat vas deferens test: antagonism of clonidine (Schild analysis, pA2). Type of assay: cell-based. The text has this:
In the test, isolated, field-stimulated rat vas deferens is utilized as an in vitro model to determine the potency and selectivity of compounds toward the various α-adrenoceptor subtypes. Selective α2 -adrenoceptor agonists such as clonidine reduce the magnitude of neurogenic contractions in the peripheral smooth muscle by reducing the stimulated release of norepinephine through the activation of presynaptic α2 -adrenoceptors on the noradrenergic nerve terminals.
The vas deferens from rats weighing 250-350 grams were freed of connective and fatty tissue and suspended between two platinum electrodes in an organ bath under 0.5 gram tension. The organ bath contained Tyrode's solution which was bubbled with 5% CO2 and 95% O2 and stimulated with square wave pulses at 0.1 Hz, 0.3 msec in duration and supramaximal voltage (30-50 V). Contractile responses were recorded. α2 -Agonist drug (clonidine) was added cumulatively to the bath and EC50 values determined by regression analysis. […] Computation of the pA2 value was performed using the formula: pA2 =pAx +log (x-1), where pAx is the negative logarithm of the molar concentration of antagonist and x is the dose ratio of EC50 values for the agonist before and after addition of the antagonist.

The next assay concerns central α2-adrenoceptors. As to the kind of experiment: In vivo antagonism of clonidine-induced mydriasis. On the set-up: species or system rat (Sprague-Dawley). The settings on record: for Antagonism of Clonidine Induced Mydriasis (ED2X): anesthetized rats, pretreated 5 minutes before i.v. clonidine, dose causing doubling of clonidine ED50, N=4/group. As for the experimental part: Administration of clonidine to rat produces mydriasis by an α2 -adrenergic mechanism in the central nervous system as reported by Koss et al., Naunyl-Schmiedeberg's Arch. […] Ophthal. […] Antagonism of the mydriatic action of clonidine was used as an in vivo test to examine the ability of the compounds to penetrate the central nervous system and antagonize α2 -adrenoceptors in the rat.
Adult male Sprague-Dawley rats (250-450 g) were anesthetized with chloral hydrate (120-160 mg/kg i.p.), and a femoral vein was cannulated for drug administration. Body temperature was maintained at 37° C.±0.5. The eye was illuminated using a light with green filters to provide added contrast to aid in visualization of the iris. Pupil diameter was measured using a dissecting microscope containing an ocular micrometer with a resolution of 0.1 mm.
Five minutes was allowed to elapse between successive doses of clonidine, and pupil diameter was determined immediately prior to the injection of the next dose of clonidine. The dose of clonidine required to cause 50% of the maximum increase in diameter of the pupil was determined for each rat, using logarithmic linear regression analysis. […] The potency of antagonists was expressed as ED2X values, i.e. the calculated dose of antagonist required to cause a doubling in the ED50 value for clonidine.

Assay [2] deals with T1, peripheral α2-adrenoceptors. Kind of assay: Peripheral versus central α2-adrenoceptor selectivity, vas deferens compared with mydriasis data. The conditions noted are these: relative to yohimbine.

`CS(=O)(=O)NCCN1C(=O)NC[C@]12CCN1CCc3c(oc4ccccc34)[C@@H]1C2` [Arylquinolizine Compound A, (2R,12bS)-3'-(2-methanesulfonamidoethyl)-spiro-[1,3,4,6,7,12b-hexahydrobenzo[b]furo[2,3-a]quinolizin]-2,4'-imidazolidin-2'-one] had an antagonist dissociation constant (Kb) in assay [1] (isolated field-stimulated rat vas deferens, agonist clonidine, antagonist at least 20 minutes contact) of 3.02 nM. Further, in assay [1] (vas deferens data, relative to yohimbine), the “higher affinity for α2-adrenoceptors than yohimbine” value is recorded as “seven”. The “Antagonism of Clonidine Induced Mydriasis (ED2X)” value with central α2-adrenoceptors worked out at 18.0 mg/kg i.v. Also, the “less potent in eliciting a response mediated by central α2-adrenoceptors (mydriasis data)” value with central α2-adrenoceptors (relative to yohimbine) was determined as 132 fold. In assay [2], the “more selective for the periphery than yohimbine” value is reported as “about 900 times”.

As to `COC(=O)[C@@H]1[C@H]2C[C@H]3c4[nH]c5ccccc5c4CCN3C[C@@H]2CC[C@@H]1O` [Yohimbine, reference compound], the “Antagonism of Clonidine Induced Mydriasis (ED2X)” value with central α2-adrenoceptors turned out to be 0.136 mg/kg i.v.

A word on the Kb: it is the affinity of an antagonist, worked out from how it opposes an agonist. A lower Kb goes with higher antagonist affinity.

Values taken from patent US4916223A, “Substituted hexahydroarylquinolizines” (Merck & Co., Inc., priority 1989, dated 1990).
